Measured values reported in ChEMBL document CHEMBL2016497, “Analogs of the RSK inhibitor SL0101: optimization of in vitro biological stability” (Bioorg Med Chem Lett, 2012).

The chains behind the UniProt entries cited, without tags or fusion partners.
UniProt P51812, whole entry: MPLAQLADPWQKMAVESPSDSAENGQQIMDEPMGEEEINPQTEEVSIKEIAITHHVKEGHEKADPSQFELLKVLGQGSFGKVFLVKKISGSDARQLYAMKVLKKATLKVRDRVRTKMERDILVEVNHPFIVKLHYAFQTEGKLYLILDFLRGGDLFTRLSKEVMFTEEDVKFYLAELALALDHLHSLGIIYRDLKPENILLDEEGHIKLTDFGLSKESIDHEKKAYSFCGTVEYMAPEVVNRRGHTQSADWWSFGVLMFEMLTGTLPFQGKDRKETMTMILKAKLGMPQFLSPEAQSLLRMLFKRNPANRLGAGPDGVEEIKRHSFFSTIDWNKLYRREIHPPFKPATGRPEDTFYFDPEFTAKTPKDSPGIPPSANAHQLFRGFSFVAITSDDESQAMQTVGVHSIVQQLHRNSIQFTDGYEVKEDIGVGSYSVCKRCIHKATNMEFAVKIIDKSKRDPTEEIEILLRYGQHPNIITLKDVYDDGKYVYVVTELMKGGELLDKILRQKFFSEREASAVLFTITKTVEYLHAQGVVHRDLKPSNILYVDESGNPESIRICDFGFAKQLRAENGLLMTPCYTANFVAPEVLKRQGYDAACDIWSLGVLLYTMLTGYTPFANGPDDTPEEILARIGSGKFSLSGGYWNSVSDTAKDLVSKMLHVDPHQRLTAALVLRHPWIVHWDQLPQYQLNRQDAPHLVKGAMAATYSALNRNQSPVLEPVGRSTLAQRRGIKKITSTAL

Target: Ribosomal protein S6 kinase alpha-3 (Homo sapiens, UniProt P51812)
Test: Ratio of SL0101 IC50 to compound IC50 for His-tagged RSK2

Ratio IC50: 2
SMILES: CC(=O)CO[C@@H]1[C@@H](OCC(C)=O)[C@@H](O)[C@H](Oc2c(-c3ccc(O)cc3)oc3cc(O)cc(O)c3c2=O)O[C@H]1C
